Patent US20060229358A1, “Pharmaceutical composition containing flavonoids” (Taipei Medical University, priority 2005, published 2006)

What was measured:
[1] = system: PDE4; experiment: Inhibition of cyclic nucleotide PDE activity (Assay I), PDE4, incl. Lineweaver-Burk analysis; assay type: biochemical, guinea pig; settings: from the IC50s of Table 2
[2] = system: high affinity rolipram binding sites (HARBS, PDE4H); experiment: Binding to particulate HARBS of whole brain, displacement of [3H]-rolipram (Assay II); design: species or system guinea pig; settings: HARBS 50% binding concentration over PDE4 IC50
Procedure: The binding experiments are carried on basis of the methods of Schneider et al. and Zhao et al. with a small modification. Under a protocol approved by the Animal Care and Use Committee of Taipei Medical University, five male guinea pigs (Hartley), weighing 500-600 g, were anesthetized. The whole brains taken therefrom were homogenized with in 10 volumes of cold medium (pH 6.5) containing 20 mM Bis-Tris, 2 mM benzamidine, 2 mM EDTA, 50 mM sodium chloride, 0.1 mM phenylmethanesulfonyl fluoride (PMSF), and 1 mM dithiothreitol. At 4° C., the homogenate was centrifuged at 170 g for 15 min for removing blood vessels and connective tissues, and the supernatant thereof was then re-centrifuged at 40,000 g for 30 min for separating the particulates from the cytosol of cells. […]
The respective binding abilities of the test drugs (flavonoids) to membrane HARBS are performed in a 25 μl of reaction solution, containing 10 μl of [^3H]-rolipram, 10 μl of particulate suspension, and 5 μl of test drugs or selective PDE4 inhibitors for 60 min at 30° C., wherein the reaction buffer contained 50 mM Tris-HCl, 5 mM MgCl2 (pH 7.5). […] The Whatman GF/B filter was mixed with 2 ml of cocktail and counted by the β-scintillation counter (Backman, Fullerton, Calif., USA) for counting the radioactivity thereof.

For `COc1ccc(C2CC(=O)c3c(O)cc(O)cc3O2)cc1O` (centres unmarked) [Hesperetin], the “selectivity among PDE1-5” value [1] was “more-selective inhibition on PDE4” and the PDE4H/PDE4L ratio [2] was “greater than 11”.
